The record followed here is US20260116920A1, “HUMAN TRANSFERRIN RECEPTOR BINDING PEPTIDE” (PEPTIDREAM INC., priority 2021, published 2026).

By UniProt entry, the sequences of proteins in these tests, tags left out. Residues count along the entry.
UniProt P02786, 89-760 limits assumed: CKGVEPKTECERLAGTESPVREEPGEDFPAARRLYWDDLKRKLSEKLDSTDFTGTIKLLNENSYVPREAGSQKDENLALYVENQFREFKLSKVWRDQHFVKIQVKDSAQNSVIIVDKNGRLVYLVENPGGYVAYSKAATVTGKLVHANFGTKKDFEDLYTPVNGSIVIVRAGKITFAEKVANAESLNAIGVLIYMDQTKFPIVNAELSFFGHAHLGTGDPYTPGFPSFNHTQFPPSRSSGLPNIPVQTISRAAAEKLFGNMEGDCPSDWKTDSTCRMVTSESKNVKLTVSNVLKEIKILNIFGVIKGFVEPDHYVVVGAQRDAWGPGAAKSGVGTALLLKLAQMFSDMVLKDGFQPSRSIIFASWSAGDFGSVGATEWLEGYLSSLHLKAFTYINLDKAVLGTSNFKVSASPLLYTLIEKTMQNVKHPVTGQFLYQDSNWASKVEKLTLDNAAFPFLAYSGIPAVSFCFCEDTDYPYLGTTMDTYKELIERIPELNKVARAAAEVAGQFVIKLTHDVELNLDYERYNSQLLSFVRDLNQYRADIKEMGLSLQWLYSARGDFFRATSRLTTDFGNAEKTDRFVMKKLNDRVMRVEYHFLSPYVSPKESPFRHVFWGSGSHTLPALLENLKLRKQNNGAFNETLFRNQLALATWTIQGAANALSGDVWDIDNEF

The target of this assay is T1, human transferrin receptor (hTfR) (Homo sapiens, UniProt P02786).
T1 construct: made in house
The experiment in a line: Evaluation of molecular interaction between transferrin receptor (hTfR) and peptide using surface plasmon resonance (SPR). The class given is binding. The protocol:
Evaluation Test of Molecular Interaction Between Transferrin Receptor (hTfR) and Peptide Using Surface Plasmon Resonance (SPR)
The intermolecular interactions of various synthesized peptides with the transferrin receptor (hTfR) by surface plasmon resonance (SPR) of the peptides were tested by the methods described below. Specific test methods are shown below.
NTA sensor chip (Global Life Sciences Technologies Japan K.K.) was inserted into BiacoreT200 (Global Life Sciences Technologies Japan K.K.), then the priming operation was performed three times by using running buffer containing: 10 mM HEPES pH 8.0 (Nacalai Tesque, Inc.), 150 mM NaCl (Nacalai Tesque, Inc.), 0.05% Tween 20 (Nacalai Tesque, Inc.), 0.1% BSA (SIGMA-ALDRICH) and 1.0% DMSO (FUJIFILM Wako Pure Chemical Corporation), and equilibrated at a flow rate of 30 μL/min. 350 mM EDTA solution was reacted at a flow rate of 10 μL/min for 60 seconds, 0.5 mM […] solution (Kishida Chemical Co., Ltd.) was reacted at a flow rate of 10 μL/min for 60 seconds, and then the NTA sensor chip was washed with 3 mM EDTA solution (Nacalai Tesque, Inc.) at a flow rate of 10 μL/min for 60 seconds. After mixing 50 μL each of 60 mM EDC solution (Global Life Science Technologies Japan K.K.) and 650 mM NHS solution (Global Life Science Technologies Japan K.K.), the reaction was carried out at a flow rate of 10 μL/min for 420 seconds. 150 μL of 0.5 μM hTfR dimer solution was prepared by dilution with running buffer and reacted at a flow rate of 10 μL/min for 300 seconds to immobilize hTfR on the NTA sensor chip. For the human transferrin receptor (hTfR), recombinant hTfR described in Example 2 of WO2018/124121 was used. After immobilization, capping was performed by reacting with 1.0 M ethanolamine solution (Global Life Sciences Technologies Japan K.K.) at a flow rate of 10 μL/min for 420 seconds. Peptide lysate prepared in DMSO solution to 10 mM was diluted with running buffer to be a final concentration of 10 μM peptide lysate, then peptide solutions of 100 nM, 50 nM, 25 nM, 10 nM, and 5 nM were prepared. Using the above samples, the kinetics of the peptide against hTfR was obtained by SPR measurement.
The kinetic evaluation model was single-cycle kinetics, and curve fitting was performed using Biacore T200 Evaluation Software Version 3.0 (Global Life Science Technologies Japan K.K.). The binding of the peptide to hTfR was evaluated by performing curve fitting on the obtained sensorgram by least squares method and obtaining the KD value.
For orientation: SPR reads the build-up and loss of mass on a sensor chip optically.

Setting [1] is: KD class of peptide with linker binding to hTfR, by SPR (TABLE 5), read-out: SPR.
The mark [2] stands for this setting: SPR, immobilized recombinant hTfR, single-cycle kinetics, substitution variants of 894_3151, read-out: KD.

Where two headings read alike, the source gives them in different places. Some results are limits rather than exact numbers.

With `CC[C@H](C)[C@@H]1NC(=O)[C@H](Cc2ccc(OCC(=O)O)cc2)NC(=O)[C@H](Cc2ccc(N)nc2)NC(=O)[C@H](CC(N)=O)NC(=O)[C@H](Cc2c[nH]c3ccccc23)NC(=O)[C@H](C(C)C)NC(=O)[C@H](Cc2cccc(Cl)c2)N(C)C(=O)[C@H](C(C)C)NC(=O)[C@H](C)NC(=O)CSC[C@@H](C(=O)NCC(=O)NCC(=O)N[C@H](CO)C(=O)NCC(=O)N[C@H](CO)C(=O)NCC(=O)N[C@H](CCCCN)C(N)=O)NC(=O)[C@H](Cc2ccc(O)cc2)N(C)C(=O)[C@H](Cc2cccc(C(=O)O)c2)NC(=O)[C@H](CCCNC(=N)N)NC(=O)[C@H](CCC(=O)NCCOCCOCCOCCOCCOCCOCCOCCOC)NC(=O)[C@H]([C@@H](C)CC)NC1=O` [compound 340], the Kd under setting [1] was 1 to 100 nM.

Compound `CC[C@H](C)[C@@H]1NC(=O)[C@H](Cc2ccc(O)cc2)NC(=O)[C@H](Cc2ccc(O)cc2)NC(=O)[C@H](CC(N)=O)NC(=O)[C@H](Cc2c[nH]c3ccccc23)NC(=O)[C@H](C(C)C)NC(=O)[C@H](Cc2ccccc2)N(C)C(=O)[C@H](C(C)C)NC(=O)[C@H](C)NC(=O)CSC[C@@H](C(=O)NCC(=O)NCC(=O)NCC(=O)NCC(=O)N[C@@H](CO)C(=O)N[C@@H](CO)C(=O)N[C@@H](CCCCN=[N+]=[N-])C(N)=O)NC(=O)[C@H](Cc2ccc(O)cc2)N(C)C(=O)[C@H](Cc2ccc(O)cc2)NC(=O)[C@H](CCCNC(=N)N)NC(=O)[C@H](CCCNC(=N)N)NC(=O)[C@H]([C@@H](C)CC)NC1=O` [compound 263] displayed a Kd (SPR, KD class of the peptide with linker for hTfR by surface plasmon resonance) of 1 to 100 nM.

Turning to `CC[C@H](C)[C@@H]1NC(=O)[C@H](Cc2ccc(OCC(=O)O)cc2)NC(=O)[C@H](Cc2ccc(O)cc2)NC(=O)[C@H](CC(N)=O)NC(=O)[C@H](Cc2cn(CC(=O)O)c3ccccc23)NC(=O)[C@H](C(C)C)NC(=O)[C@H](Cc2cccc(Cl)c2)N(C)C(=O)[C@H](C(C)C)NC(=O)[C@H](C)NC(=O)CSC[C@@H](C(=O)NCC(=O)N[C@H](CO)C(=O)N[C@H](CO)C(=O)N[C@H](CCC(=O)O)C(=O)N[C@H](CO)C(=O)N[C@H](CCC(=O)O)C(=O)N[C@@H](CCCCNC(C)=O)C(N)=O)NC(=O)[C@H](Cc2ccc(O)cc2)N(C)C(=O)[C@H](Cc2ccccc2)NC(=O)[C@H](CCCNC(=N)N)NC(=O)[C@H](CCCNC(=N)N)NC(=O)[C@H]([C@@H](C)CC)NC1=O` [compound 312], under setting [1], the Kd is less than 1 nM.

Take `CC[C@H](C)[C@@H]1NC(=O)[C@H](Cc2ccc(OCC(=O)O)cc2)NC(=O)[C@H](Cc2ccc(O)cc2)NC(=O)[C@H](CC(N)=O)NC(=O)[C@H](Cc2cn(CC(=O)O)c3ccccc23)NC(=O)[C@H](C(C)C)NC(=O)[C@H](Cc2cccc(Cl)c2)N(C)C(=O)[C@H](C(C)C)NC(=O)[C@H](C)NC(=O)CSC[C@@H](C(=O)NCC(=O)N[C@H](CO)C(=O)N[C@H](CCC(=O)O)C(=O)N[C@H](CCC(=O)O)C(=O)N[C@H](CCC(=O)O)C(=O)N[C@H](CO)C(=O)N[C@@H](CCCCNC(C)=O)C(N)=O)NC(=O)[C@H](Cc2ccc(O)cc2)N(C)C(=O)[C@H](Cc2ccccc2)NC(=O)[C@H](CCCNC(=N)N)NC(=O)[C@H](CCCNC(=N)N)NC(=O)[C@H]([C@@H](C)CC)NC1=O` [compound 326]: the Kd under setting [1] is 1 to 100 nM.

Turning to `CC[C@H](C)[C@@H]1NC(=O)[C@H](Cc2ccc(O)cc2)NC(=O)[C@H](Cc2ccc(O)cc2)NC(=O)[C@H](CC(N)=O)NC(=O)[C@H](Cc2c[nH]c3ccccc23)NC(=O)[C@H](C(C)C)NC(=O)[C@H](Cc2ccccc2)N(C)C(=O)[C@H](C(C)C)NC(=O)[C@H](C)NC(=O)CSC[C@@H](C(=O)NCC(=O)N[C@@H](CCCNC(=N)N)C(=O)N[C@@H](CCCNC(=N)N)C(=O)N[C@@H](CCCNC(=N)N)C(=O)N[C@@H](CCCCN=[N+]=[N-])C(N)=O)NC(=O)[C@H](Cc2ccc(O)cc2)N(C)C(=O)[C@H](Cc2ccc(O)cc2)NC(=O)[C@H](CCCNC(=N)N)NC(=O)[C@H](CCCNC(=N)N)NC(=O)[C@H]([C@@H](C)CC)NC1=O` [compound 349], the Kd under setting [1] fell in the range of 1 to 100 nM.

In the case of `CC[C@H](C)[C@@H]1NC(=O)[C@H](Cc2ccc(OCC(=O)O)cc2)NC(=O)[C@H](Cc2ccc(O)cc2)NC(=O)[C@H](CC(N)=O)NC(=O)[C@H](Cc2cn(CC(=O)O)c3ccccc23)NC(=O)[C@H](C(C)C)NC(=O)[C@H](Cc2cccc(Cl)c2)N(C)C(=O)[C@H](C(C)C)NC(=O)[C@H](C)NC(=O)CSC[C@@H](C(=O)NCC(=O)N[C@H](CCC(=O)O)C(=O)N[C@H](CCC(=O)O)C(=O)N[C@H](CCC(=O)O)C(=O)N[C@H](CO)C(=O)N[C@H](CO)C(=O)N[C@@H](CCCCN)C(N)=O)NC(=O)[C@H](Cc2ccc(O)cc2)N(C)C(=O)[C@H](Cc2cccc(C(=O)O)c2)NC(=O)[C@H](CCCCN2CCOCC2)NC(=O)[C@H](CCCCN2CCOCC2)NC(=O)[C@H]([C@@H](C)CC)NC1=O` [compound 307], the Kd (KD class of the peptide with linker for hTfR by surface plasmon resonance, read-out: SPR) is 1 to 100 nM.

`CC[C@H](C)[C@@H]1NC(=O)[C@H](Cc2ccc(OCC(=O)O)cc2)NC(=O)[C@H](Cc2ccc(O)cc2)NC(=O)[C@H](CC(N)=O)NC(=O)[C@H](Cc2cn(CC(=O)O)c3ccccc23)NC(=O)[C@H](C(C)C)NC(=O)[C@H](Cc2cccc(Cl)c2)N(C)C(=O)[C@H](C(C)C)NC(=O)[C@H](C)NC(=O)CSC[C@@H](C(=O)NCC(=O)N[C@H](CO)C(=O)N[C@H](CO)C(=O)N[C@H](CCC(=O)O)C(=O)N[C@H](CCC(=O)O)C(=O)N[C@H](CCC(=O)O)C(=O)N[C@@H](CCCCNC(C)=O)C(N)=O)NC(=O)[C@H](Cc2ccc(O)cc2)N(C)C(=O)[C@H](Cc2ccccc2)NC(=O)[C@H](CCCNC(=N)N)NC(=O)[C@H](CCCNC(=N)N)NC(=O)[C@H]([C@@H](C)CC)NC1=O` [compound 327]: the Kd under setting [1] was 1 to 100 nM.

Turning to `CC[C@H](C)[C@@H]1NC(=O)[C@H](Cc2ccc(OCC(=O)O)cc2)NC(=O)[C@H](Cc2ccc(O)cc2)NC(=O)[C@H](CC(N)=O)NC(=O)[C@H](Cc2cn(CC(=O)O)c3ccccc23)NC(=O)[C@H](C(C)C)NC(=O)[C@H](Cc2cccc(Cl)c2)N(C)C(=O)[C@H](C(C)C)NC(=O)[C@H](C)NC(=O)CSC[C@@H](C(=O)NCC(=O)N[C@H](CO)C(=O)N[C@H](CCC(=O)O)C(=O)N[C@H](CCC(=O)O)C(=O)N[C@H](CO)C(=O)N[C@H](CCC(=O)O)C(=O)N[C@@H](CCCCNC(C)=O)C(N)=O)NC(=O)[C@H](Cc2ccc(O)cc2)N(C)C(=O)[C@H](Cc2ccccc2)NC(=O)[C@H](CCCNC(=N)N)NC(=O)[C@H](CCCNC(=N)N)NC(=O)[C@H]([C@@H](C)CC)NC1=O` [compound 332], the Kd under setting [1] was 1 to 100 nM.

As to `CC[C@H](C)[C@@H]1NC(=O)[C@H](Cc2ccccc2)NC(=O)[C@H](Cc2ccc(O)cc2)NC(=O)[C@H](Cc2ccc(O)cc2)NC(=O)[C@H](CC(N)=O)NC(=O)[C@H](Cc2c[nH]c3ccccc23)NC(=O)[C@H](C(C)C)NC(=O)[C@H](Cc2ccccc2)N(C)C(=O)[C@H](C(C)C)NC(=O)[C@H](C)NC(=O)CSC[C@@H](C(=O)NCCOCCOCCOCCOCCOCCOCCOCCOCCOCCOCCOCCOCCC(N)=O)NC(=O)[C@H](Cc2ccc(O)cc2)N(C)C(=O)[C@H](Cc2ccc(O)cc2)NC(=O)[C@H](CCCNC(=N)N)NC(=O)[C@H](CCCNC(=N)N)NC1=O` [compound 262], the Kd under setting [2] worked out at 218 nM.

With `CC[C@H](C)[C@@H]1NC(=O)[C@H](Cc2ccc(O)cc2)NC(=O)[C@H](Cc2ccc(O)cc2)NC(=O)[C@H](CC(N)=O)NC(=O)[C@H](Cc2c[nH]c3ccccc23)NC(=O)[C@H](C(C)C)NC(=O)[C@H](Cc2ccccc2)N(C)C(=O)[C@H](C(C)C)NC(=O)[C@H](CO)NC(=O)CSC[C@@H](C(=O)NCCOCCOCCOCCOCCOCCOCCOCCOCCOCCOCCOCCOCCC(N)=O)NC(=O)[C@H](Cc2ccc(O)cc2)N(C)C(=O)[C@H](Cc2ccc(O)cc2)NC(=O)[C@H](CCCNC(=N)N)NC(=O)[C@H](CCCNC(=N)N)NC(=O)[C@H]([C@@H](C)CC)NC1=O` [compound 255], under setting [2], the Kd was found to be 24.4 nM.
